Experimental findings from patent US10183949B2, “Pyrimidinone derivative having autotaxin-inhibitory activity” (The University of Tokyo, priority 2014, dated 2019) are described below.

The experiment has as its target Human autotaxin enzyme (Homo sapiens, UniProt Q13822). The experiment in a line: Evaluation of autotaxin inhibitor, 18:0 Lyso PC / choline assay (Test Example 2). Particulars: read-out: Inhibitor activity (IC50), 18:0 Lyso PC substrate, room temperature 2 hours. As for the experimental part:
Solution B containing 100 mM Tris-HCl buffer (pH7.5), 150 mM NaCl, 5 mM MgCl2, and 0.05% Triton X-100 was prepared. Human autotaxin enzyme (purchased from R&D System) was diluted with Solution B, and 2.5 μl of which was added to a solution of test compound in DMSO. Furthermore, 2.5 μl of 200 μM 18:0 Lyso PC (purchased from Avanti Polar Lipids) in Solution B was added and allowed to react at room temperature for 2 hours. After completion of the reaction, 15 μl of the coline assay reagent. (100 mM Tris-HCl buffer (pH7.5), 5 mM. MgCl2, 77 μg/ml coline oxidase, 10 μg/ml peroxydase, 25μM 10-acetyl-3,7-dihydroxyphenoxazine, and excess autotaxin inhibitor) was added and allowed to react at room temperature for 20 minutes. The fluorescent dye Resorufin, which was produced by the reaction, was detected. The fluorescence was detected using ViewLux
(PerkinElmer, Inc.) with a excitation wavelength of 531 nm and a fluorescence wavelength of 598 nm.
The percent inhibition of the test compound was calculated by assuming the sample with no test compound as 0% inhibition and the sample with no enzyme as 100% inhibition, and the percent inhibitions at different concentrations of the test compound were plotted to obtain a concentration-dependent curve.
In the case of `Cc1nc(-c2ccc(Cl)cc2NC(=O)C2CC2)cc(=O)n1CC(=O)N1CCN(C(N)=O)CC1`, the IC50 (in general, the concentration that inhibits the measured activity by half) is 0.01 to 0.1 µM.

As to `CC(C)(C)C(=O)Nc1cc(Cl)ccc1-c1cc(=O)n(CC(=O)N2CCC3(COC3)C2)cn1`, the IC50 is greater than 1 µM.

With `CC(C)(C)C(=O)Nc1cc(Cl)ccc1-c1cc(=O)n(CC(=O)Nc2ccnc(O)c2)cn1`, the IC50 lay within 0.1 to 1 µM.

In the case of `CCCCNc1nc(-c2cc(F)ccc2CNC(=O)OC(C)(C)C)cc(=O)n1Cc1ccccc1`, the IC50 was greater than 1 µM. As for `CCCCCNc1nc(-c2ccc(C(F)(F)F)cc2)cc(=O)n1Cc1ccc(C(=O)NCCC(=O)O)cc1`, the figure is 0.1 to 1 µM; as for `CC(C)(C)C(=O)Nc1cc(Cl)ccc1-c1cc(=O)n(CC(=O)N2CCC(O)CC2)cn1`, 0.1 to 1 µM; as for `CC(C)(C)C(=O)Nc1cc(Cl)ccc1-c1cc(=O)n(CC(=O)NCc2c[nH]nn2)cn1`, 0.01 to 0.1 µM. Regarding `CCCCNc1nc(-c2ccc(OC(F)(F)F)cc2CC#N)cc(=O)n1Cc1ccccc1`, the IC50 fell in the range of 0.1 to 1 µM.

Regarding `CC(C)(C)C(=O)Nc1cc(Cl)ccc1-c1cc(=O)n(CC(=O)Nc2cccnc2O)cn1`, the IC50 lay in the range of 0.1 to 1 µM.
